## AlphaSeq binding of Ab-14 heavy chain variants to a spike HR2 peptide

Source: Engelhart et al. 2022 (doi:10.1038/s41597-022-01779-4), MIT Lincoln Laboratory and A-Alpha Bio; data file from the FLAb repository.

Antigen: PDVDLGDISGINAS, a 14-residue peptide of the SARS-CoV-2 spike HR2 region.

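The parent was found by panning a naive human phage display library on the peptide. Library AAYL49 holds single substitutions and randomly drawn double and triple substitutions in the CDRs. Affinity was read by AlphaSeq, a pooled yeast mating assay with surface-displayed partners. Mating (16 h, 30 °C) was followed by selection of diploids and sequencing of their barcodes. Read counts were normalised to the haploid input and turned into Kd by a linear fit to BCL2-family pairs of known affinity, for each replicate. The assay was run in three technical replicates.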

Ab-14 is the parent antibody, in scFv form: VH, then the linker GGGGSGGGGSGGGGS, then VL. The light chain is unchanged in all variants.
VH: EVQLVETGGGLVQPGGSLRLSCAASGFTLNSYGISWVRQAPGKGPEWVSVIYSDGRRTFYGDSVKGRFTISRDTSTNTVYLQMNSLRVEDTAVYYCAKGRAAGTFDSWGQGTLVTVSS
VL: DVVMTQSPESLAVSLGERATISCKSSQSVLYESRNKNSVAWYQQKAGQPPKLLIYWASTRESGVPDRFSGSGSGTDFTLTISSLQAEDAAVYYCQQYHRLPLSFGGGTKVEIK

The parent's heavy chain CDRs are GFTLNSYGIS, VIYSDGRRTFYGDSVK, GRAAGTFDS; each variant's own CDRs replace them letter for letter. Affinities are written as log10 Kd with Kd in nM; a lower number is a better binder. "nd" marks a missing value. The strain was present, yet no cells mated with the target were sequenced in that replicate, which points to weak or no binding. Background: pairings of library AAYL49 with three empty control strains gave a value in 15% of cases (median 4.06, 5th percentile 2.83). Values in that range, when seen in few replicates, are hard to tell from nonspecific mating. The control count says in how many pairings with the empty strains this scFv gave a signal, with their mean in brackets. Parent in this assay: reference entry 0.65, copy in this library 4.11 (one replicate of three).

CDR-H1	CDR-H2	CDR-H3	log10 Kd (nM) by replicate	empty controls
GVTLFSYDIS	VIYSDGRRTFYGDSVK	GRAAGTFDS	nd nd nd	1 of 9 (3.04)
GFTLNSYGIS	VIWSDFRRTFYGHSVK	GRAAGTFDS	nd nd nd	0 of 9
GFTLNSYGIS	VIYSDERWTFYGCSVK	GRAAGTFDS	nd nd nd	0 of 9
GFCLNSYGIS	VIYSDGRRTFYGDEVK	GPAAGTFDS	nd nd nd	1 of 9 (3.29)
GFTLNSYKIS	AMYSDGRRTFYGDSVK	GRAAGTFDS	nd nd nd	1 of 9 (3.40)
LFTLNSYGIS	VIYSDGPRTVYGDSVK	GRAAGTFDS	nd nd nd	0 of 9
GFTLNSYGIS	VIYSKGDRTFYGDSVK	GRAAGMFDS	nd nd nd	1 of 9 (3.81)
GNTLNSYVIS	VIYSDGRRTFYGDSVK	GRLAGTFDS	nd nd nd	1 of 9 (2.92)
GFTLNSYGIS	VIYSDGHRTFYGDDVK	GRAAGTGDS	1.24 1.38 1.53	3 of 9 (3.79)
GFTKNVYGTS	VIYSDGRRTFYGDSVK	GRAAGTFDS	nd 3.75 3.84	4 of 9 (3.59)
GFTQNSYSIS	VIYSDGRRTFYGDSVK	GRAAGVFDS	nd nd nd	0 of 9
GFTLNSYGIS	VIYSDGRRRFYMDSVK	GRAAGGFDS	nd nd nd	0 of 9
GFALNSYGIS	VIYSDGRITFYKDSVK	GRAAGTFDS	5.89 nd 3.94	1 of 9 (3.19)
GKTLNSYGIS	VIYYDGRRTFYGDSVK	PRAAGTFDS	nd nd 3.48	1 of 9 (4.42)
GFTLNSYGIV	VIYSIGRRTFYQDSVK	GRAAGTFDS	nd nd nd	0 of 9
GFTLNSYGIS	VIYCDGRRTKYGHSVK	GRAAGTFDS	nd nd nd	0 of 9
GFTLNSYGIS	VIYSDMRRTFYGDFRK	GRAAGTFDS	nd nd nd	1 of 9 (4.82)
GFTLISYGKS	VIYSDGRRTFYGDSVC	GRAAGTFDS	nd nd nd	5 of 9 (4.31)
HFHLNSYGIS	VIYSDGRRTFYWDSVK	GRAAGTFDS	nd nd nd	2 of 9 (3.17)
GFTWNSYGIS	VIYSDGRRRFYGDSVK	GRAAGTFDS	nd nd nd	0 of 9
GFTLNSYGIS	VDYSDGRRTFDGDSVK	GRAAGTGDS	4.52 nd 4.33	1 of 9 (4.09)
GFTLNVYGIS	VIYSDGRRTWYGDSVK	GRAAGTFDS	2.48 2.25 2.69	5 of 9 (3.88)
GFTLNSYGIS	VIYSYGRRTFYGDSVK	GRAKGTFQS	5.78 nd 4.25	2 of 9 (3.78)
GFTLNSYGIS	VIYSDGARTFYGDSVK	ARAAGTFDS	nd nd 3.14	0 of 9
GFTLNSYGIS	VIYSDGRRTFYGDSAK	KRAAGLFDS	4.93 nd nd	0 of 9
GFTLNSYPIS	VIYSDGRRTSLGDSVK	GRAAGTFDS	nd nd nd	0 of 9
GFTLNSYGIS	VIYPDGRRYFYGDSVK	GRIAGTFDS	1.34 1.35 1.31	4 of 9 (3.85)
GFTLNSYGIS	VILSDGRRTFYGDSVK	GRRAGTFDS	nd nd nd	0 of 9
GFTLNPWGIS	VIYSDGRRTFYGDSVK	SRAAGTFDS	nd nd nd	0 of 9
GFTLNSYGIS	VIYSDGRRPFYGDSIK	GRAAGTVDS	3.85 3.91 nd	6 of 9 (4.46)
GFTLLSYGIS	VIPSDGRRTFYYDSVK	GRAAGTFDS	nd nd nd	0 of 9

Excerpt, the final 3 entries:

CDR-H1	CDR-H2	CDR-H3	log10 Kd (nM) by replicate	empty controls
GFTLNPWGIS	VIYSDGRRTFYGDSVK	SRAAGTFDS	nd nd nd	0 of 9
GFTLNSYGIS	VIYSDGRRPFYGDSIK	GRAAGTVDS	3.85 3.91 nd	6 of 9 (4.46)
GFTLLSYGIS	VIPSDGRRTFYYDSVK	GRAAGTFDS	nd nd nd	0 of 9